## Apparent affinities of Ab-14 variants for a coronavirus HR2 peptide

Data: MIT Lincoln Laboratory AlphaSeq set, Li et al. 2023, doi:10.1038/s41467-023-39022-2, as distributed in FLAb.

Target: peptide PDVDLGDISGINAS, taken from heptad repeat 2 (HR2) of SARS-CoV-2 spike.

The variants keep the light chain, the linker and the frameworks of Ab-14 (scFv order VH, a (GGGGS)3 linker, VL).
VH: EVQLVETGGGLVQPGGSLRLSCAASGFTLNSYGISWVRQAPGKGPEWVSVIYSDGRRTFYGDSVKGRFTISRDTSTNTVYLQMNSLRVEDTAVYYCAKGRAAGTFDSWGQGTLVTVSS
VL: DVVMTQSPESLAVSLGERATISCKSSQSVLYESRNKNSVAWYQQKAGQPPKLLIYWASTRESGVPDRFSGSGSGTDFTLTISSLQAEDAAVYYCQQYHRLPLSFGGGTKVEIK

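Phage display of a naive human antibody library on the peptide gave the parent. These sequences belong to a second round, designed from the earlier measurements on random variants of the parent. Several design methods are mixed in this list. The assay is AlphaSeq: two haploid yeast populations carry antibody and antigen on their surface. Mating (16 h, 30 °C) was followed by selection of diploids and sequencing of their barcodes. Scores were corrected for input abundance and mapped to Kd with protein pairs of known affinity run in the same pool. There are six technical replicates.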

Changes read parent residue, position, new residue, counted from the first residue of the VH shown. This list holds designs with at most six substitutions. Values are log10 of the apparent Kd in nM; lower means stronger binding. An entry "ND" has no value in the source: the pair was not observed among the diploids in that replicate. This suggests poor binding but is not conclusive.

The variant T28S S31D G61M A101T showed 1.23, 0.50, 0.57, 0.12, 0.73, 0.66 (controls 1 of 18). For F27K R56K G61A S63D A101T, the assay gave 1.40, 0.51, 0.60, 0.89, 0.74, 0.92 (controls 0 of 18). The variant G26T T28D S31E G103V gave ND, ND, ND, ND, ND, ND (controls 0 of 18). The variant G61S S63L A102G gave ND, ND, ND, ND, ND, ND (controls 0 of 18). The variant T28W S31E G61T S63R R100E showed ND, ND, ND, ND, 3.07, 2.85 (controls 0 of 18). For N30D S53A D106R, the assay gave ND, ND, ND, ND, ND, 1.32 (controls 0 of 18). For F27D S53A A101N, the assay gave -0.05, -0.09, 0.68, 0.07, 1.29, 1.17 (controls 0 of 18). The variant I34C G55S G61S G99E A102G showed ND, ND, ND, ND, ND, ND (controls 0 of 18).

The variant T28Q S31E S107F showed 1.72, 1.43, 0.89, 1.36, 0.78, 1.75 (controls 2 of 18). For S31E G61S A101H, the assay gave 0.27, -0.01, -0.18, 0.10, 0.10, -0.20 (controls 0 of 18). The variant F59Q S63R S107V showed ND, ND, ND, ND, ND, ND (controls 1 of 18). The variant S31D F59S G61I gave 0.40, 0.32, 0.34, -0.13, 0.09, 0.10 (controls 1 of 18). With T28D S31T G61V R100Q the result was 0.69, 0.44, 0.23, 0.51, 0.25, 0.13 (controls 1 of 18). For I51D G61S G99S, the assay gave ND, ND, ND, ND, ND, ND (controls 0 of 18). The variant T28D S31E R100K gave 0.39, 0.24, -0.19, 0.03, -0.04, -0.13 (controls 0 of 18). The variant F59A G99A A102C D106F showed ND, ND, ND, ND, ND, ND (controls 0 of 18).

The variant L29I S31N G55M A101D showed ND, ND, ND, ND, ND, ND (controls 0 of 18). The variant T28S F59S G61L A101C S107Q showed ND, ND, ND, ND, ND, ND (controls 0 of 18). With T28P S35H A101N the result was ND, ND, ND, ND, ND, ND (controls 0 of 18). The variant S31E R56H G99H A101N T104W gave 0.77, -0.22, -0.27, 0.22, 0.32, 0.01 (controls 0 of 18). With G99C R100L A101N the result was ND, ND, ND, ND, ND, ND (controls 0 of 18). For R100Q A102K, the assay gave ND, ND, ND, ND, ND, ND (controls 0 of 18). The variant Y32A R100W A101K gave ND, ND, ND, ND, ND, ND (controls 0 of 18). For G55T G61T, the assay gave ND, ND, ND, ND, ND, ND (controls 0 of 18).

The variant R56M G99L T104A showed ND, ND, ND, ND, 3.12, ND (controls 1 of 18). The variant T28D R56K G61I A101T showed ND, 0.34, ND, 0.55, 0.65, -0.49 (controls 0 of 18). The variant T28N S53A G103I gave 1.26, 0.95, 0.40, 0.39, 0.37, 1.02 (controls 0 of 18). For T28S G61V A101L S107T, the assay gave ND, 1.00, 1.28, 2.26, 0.55, 1.73 (controls 2 of 18). The variant G26K T28S G61S R100K A101T gave ND, 0.11, 0.59, 0.75, 0.78, 1.72 (controls 1 of 18). For T28D G61Q R100D, the assay gave 0.82, 0.94, 0.80, 0.76, 0.51, 0.86 (controls 3 of 18). The variant S31E G61T S63H A101F showed 0.79, 1.57, 1.15, 0.72, 0.81, 1.11 (controls 1 of 18). The variant S31D R56K G61L showed ND, 1.41, 0.95, 1.73, 0.99, 2.07 (controls 0 of 18).

With G26M T28S G61A R100N the result was ND, ND, ND, 3.13, ND, ND (controls 1 of 18). The variant G26H T28K S31E S35H D106K S107V showed ND, ND, ND, ND, ND, ND (controls 0 of 18). The variant S53A G61K showed 0.87, ND, 1.02, ND, -0.17, 0.60 (controls 0 of 18). With A101D T104I the result was ND, ND, ND, ND, ND, ND (controls 1 of 18). For T28H K65A A101V T104Y, the assay gave ND, ND, ND, ND, ND, ND (controls 0 of 18). The variant S63N S107I showed ND, ND, ND, 2.15, 2.33, 2.28 (controls 0 of 18). The variant R56Q A101V S107L gave 0.25, 0.42, 1.28, ND, ND, 2.08 (controls 1 of 18). With S31D F59Q G61I G103T T104R the result was ND, ND, ND, ND, ND, ND (controls 0 of 18).

The variant T28S G61Q S63R A101T showed -0.08, ND, ND, ND, 0.50, ND (controls 0 of 18). The variant Y32E A102S F105A S107D showed ND, ND, ND, ND, ND, ND (controls 0 of 18). With T28Q G61K S63Q A101T the result was ND, 1.07, 1.37, 1.52, 1.60, ND (controls 0 of 18). The variant T28S G61V R100Q S107T showed 1.43, 0.91, 1.04, 0.23, 0.58, 0.89 (controls 0 of 18). The variant A101N A102T showed ND, ND, ND, ND, ND, ND (controls 0 of 18). The variant G61S A102G G103P gave ND, ND, ND, ND, ND, ND (controls 0 of 18). For T28E F59E G61I, the assay gave 1.13, 1.01, 1.41, 1.53, 1.66, 1.55 (controls 0 of 18). The variant S31L G61D R100Q A101E gave 1.98, 1.39, 1.27, 2.86, 0.95, 0.90 (controls 0 of 18).

The variant T28E G61A R100N A101T gave 0.01, 0.12, 0.21, -0.14, -0.20, -0.07 (controls 2 of 18). The variant T28Q S31E A101Q gave 0.49, 0.03, 0.37, 0.05, 1.22, 0.66 (controls 0 of 18). The variant N30D A101Q D106E gave ND, 2.17, 2.52, 3.00, 1.59, 2.22 (controls 1 of 18). The variant T28E G61I S63D R100Q A101T showed 0.52, 0.26, 0.07, 0.11, 0.25, 0.32 (controls 2 of 18).

The first 5 variants above that were never detected:

changes,"replicates, log10 nM",empty controls
G26T T28D S31E G103V,"ND, ND, ND, ND, ND, ND",0/18
G61S S63L A102G,"ND, ND, ND, ND, ND, ND",0/18
I34C G55S G61S G99E A102G,"ND, ND, ND, ND, ND, ND",0/18
F59Q S63R S107V,"ND, ND, ND, ND, ND, ND",1/18
I51D G61S G99S,"ND, ND, ND, ND, ND, ND",0/18

Empty control strains, which show no peptide, gave a signal in 1% of pairings with all heavy chain designs; the median was 2.08 and 95% of these signals were weaker than 0.84. No background was subtracted. For each scFv, signals with the empty controls are counted beside the result. In the paper, a design with two or fewer of six values counts as a poor binder. The parent sequence was in this pool as ten entries: three were never detected, three once, and four in most replicates, with averages from 0.34 to 2.37. Values of this round are not directly comparable with the first-round values of the same sequences.